Here are results for 30 molecules from PubChem BioAssay (NCI).

“And” between values parts separate entries of the source, which are not always exact repeats. Equal entries are not always repeated. The list shows a part of the results, in another mix than the full data.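 Testing used 96-well plates and a 48-hour single-concentration exposure. Example: -40 means 40% of the starting cells died.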 Some salts and complexes are drawn in separate pieces, as the source files them; their charges need not balance. The source made the active and inactive calls. The calls were made as follows: active = growth percent below 10; inactive = the rest.

One assay concerns MALME-3M melanoma. Nature of the assay: NCI-60 one-dose screen, 48 h (100 = growth as untreated, 0 = no growth, -100 = all killed). The settings on record: 10 µM.
For `CCCOP(=S)(Cl)OCCC`, the growth was inactive: 100%.
On to `CN(C)CCS`, for which the growth is inactive: 114% and inactive: 88.3%.
On the same count and under the same terms, in the case of `O=C(O)C1(O)c2ccccc2-c2ccccc21` it was inactive: 91.8% and inactive: 110%; in that of `Nc1cccc(Cl)c1.O=[N+]([O-])c1cc([N+](=O)[O-])c(O)c([N+](=O)[O-])c1`, inactive: 97.9%; in that of `OCCSCCO`, inactive: 90.5%.
`Nc1cc([As](Cl)Cl)cc(N)c1O`: the growth was inactive: 66.7%.
Same read-out and setting: the same measure for `O=[N+]([O-])N(CCN(CC(Br)([N+](=O)[O-])[N+](=O)[O-])[N+](=O)[O-])CC(Br)([N+](=O)[O-])[N+](=O)[O-]`: inactive: 89.9%; for `O=C1N([N+](=O)[O-])CCN1[N+](=O)[O-]`: inactive: 115%.
Still for that read-out and setting: the same measure for `CC[N+]([O-])(CC)Cc1ccccc1.O=[N+]([O-])c1cc([N+](=O)[O-])c(S(=O)(=O)O)c([N+](=O)[O-])c1`: inactive: 112%; for `CP(=O)(OCCCl)N(CCCl)CCCl` (stereo not given): inactive: 100%.
Same read-out and setting: the same measure for `CN(CCO)CCCl.O=[N+]([O-])c1cc([N+](=O)[O-])c(O)c([N+](=O)[O-])c1`: inactive: 97.6%; for `CCN(CC)CCOC(=O)C(O)(c1ccccc1)c1cc(C)c(C)c(C)c1C` (stereo not given): inactive: 107%.
For `CCN(CC)CCOC(=O)C(O)(c1ccccc1)c1cc(C)cc(C)c1C` (stereo not given), the growth was inactive: 131%.
The same measure, in the same setting: the same measure for `CCN(C)CC.O=[N+]([O-])c1cc([N+](=O)[O-])c(O)c([N+](=O)[O-])c1`: inactive: 93.8%.
Still for that read-out and setting: in the case of `O=C(Cl)c1c([N+](=O)[O-])cc([N+](=O)[O-])cc1[N+](=O)[O-]` it was inactive: 91.2%; in that of `COc1ccc(C(O)(C(=O)OCCN2CCCCC2)c2ccc(OC)cc2)cc1`, inactive: 111%.
The same measure, in the same setting: in the case of `Cc1c([N+](=O)[O-])c(C)c([N+](=O)[O-])c(C)c1[N+](=O)[O-]` it was inactive: 117%; in that of `O=C(OCCN1CCCCCCCC1)C(O)(c1ccccc1)c1ccccc1`, inactive: 107%.
`CN/C(N)=N/[N+](=O)[O-]`: the growth is inactive: 128%.
The same measure, in the same setting: in the case of `CCOC(=O)Nc1c([N+](=O)[O-])cc([N+](=O)[O-])cc1[N+](=O)[O-]` it was inactive: 103%; in that of `O=[N+]([O-])c1cc([N+](=O)[O-])c(Nc2nnnn2CCO)c([N+](=O)[O-])c1`, inactive: 116%; in that of `Cc1c([N+](=O)[O-])cc([N+](=O)[O-])c(Br)c1[N+](=O)[O-]`, active: -31.1%.
Turning to `CN1CCN(CCOC(=O)C(O)(c2ccccc2)c2ccccc2)CC1`, the growth was inactive: 85.7%.
On the same count and under the same terms, the same measure for `O=[N+]([O-])c1cc([N+](=O)[O-])c(O)c([N+](=O)[O-])c1.c1ccc([I+]c2ccccc2)cc1`: inactive: 64.9%; for `Nc1cc([N+](=O)[O-])cc([N+](=O)[O-])c1O`: inactive: 123% and inactive: 104%.
Regarding `CC(C)N1CCN(CCOC(=O)C(O)(c2ccccc2)c2ccccc2)CC1`, the growth was inactive: 108%.
On the same count and under the same terms, the same measure for `CC(C)N(CCCl)C(C)C`: inactive: 120%.
On the same count and under the same terms, the same measure for `O=[N+]([O-])OCCOc1ccc([N+](=O)[O-])cc1[N+](=O)[O-]`: inactive: 116%; for `O=[N+]([O-])N(CCOC(N(F)F)(N(F)F)N(F)F)CC([N+](=O)[O-])([N+](=O)[O-])[N+](=O)[O-]`: inactive: 101%.
Still for that read-out and setting: the same measure for `NN/C(N)=N/[N+](=O)[O-]`: inactive: 107%.

For the next assay, the system named is MDA-MB-231 breast. Described as above. The note with it: 10 µM.
As for `CCCOP(=S)(Cl)OCCC`, the growth was inactive: 103%.
Still for that read-out and setting: the same measure for `CN(C)CCS`: inactive: 105% and inactive: 112%; for `O=C(O)C1(O)c2ccccc2-c2ccccc21`: inactive: 91.4% and inactive: 93.1%.
On the same count and under the same terms, the same measure for `Nc1cccc(Cl)c1.O=[N+]([O-])c1cc([N+](=O)[O-])c(O)c([N+](=O)[O-])c1`: inactive: 94.9%; for `OCCSCCO`: inactive: 101%.
Same read-out and setting: in the case of `Nc1cc([As](Cl)Cl)cc(N)c1O` it was inactive: 58.4%.
As to `O=[N+]([O-])N(CCN(CC(Br)([N+](=O)[O-])[N+](=O)[O-])[N+](=O)[O-])CC(Br)([N+](=O)[O-])[N+](=O)[O-]`, the growth is inactive: 115%.
As for `O=C1N([N+](=O)[O-])CCN1[N+](=O)[O-]`, the growth was inactive: 107%.
With `CC[N+]([O-])(CC)Cc1ccccc1.O=[N+]([O-])c1cc([N+](=O)[O-])c(S(=O)(=O)O)c([N+](=O)[O-])c1`, the growth is inactive: 118%.
Still for that read-out and setting: in the case of `CP(=O)(OCCCl)N(CCCl)CCCl` (stereo not given) it was inactive: 120%.
Still for that read-out and setting: the same measure for `CN(CCO)CCCl.O=[N+]([O-])c1cc([N+](=O)[O-])c(O)c([N+](=O)[O-])c1`: inactive: 105%.
As to `CCN(CC)CCOC(=O)C(O)(c1ccccc1)c1cc(C)c(C)c(C)c1C` (stereo not given), the growth was inactive: 81.8%.
Still for that read-out and setting: in the case of `CCN(CC)CCOC(=O)C(O)(c1ccccc1)c1cc(C)cc(C)c1C` (stereo not given) it was inactive: 86%; in that of `CCN(C)CC.O=[N+]([O-])c1cc([N+](=O)[O-])c(O)c([N+](=O)[O-])c1`, inactive: 101%; in that of `O=C(Cl)c1c([N+](=O)[O-])cc([N+](=O)[O-])cc1[N+](=O)[O-]`, inactive: 73.1%.
Still for that read-out and setting: the same measure for `COc1ccc(C(O)(C(=O)OCCN2CCCCC2)c2ccc(OC)cc2)cc1`: inactive: 101%; for `Cc1c([N+](=O)[O-])c(C)c([N+](=O)[O-])c(C)c1[N+](=O)[O-]`: inactive: 113%.
Still for that read-out and setting: in the case of `O=C(OCCN1CCCCCCCC1)C(O)(c1ccccc1)c1ccccc1` it was inactive: 95.1%.
For `CN/C(N)=N/[N+](=O)[O-]`, the growth is inactive: 104%.
The same measure, in the same setting: in the case of `CCOC(=O)Nc1c([N+](=O)[O-])cc([N+](=O)[O-])cc1[N+](=O)[O-]` it was inactive: 97.1%.
The same measure, in the same setting: the same measure for `O=[N+]([O-])c1cc([N+](=O)[O-])c(Nc2nnnn2CCO)c([N+](=O)[O-])c1`: inactive: 118%.
Still for that read-out and setting: the same measure for `Cc1c([N+](=O)[O-])cc([N+](=O)[O-])c(Br)c1[N+](=O)[O-]`: inactive: 91.9%.
As for `CN1CCN(CCOC(=O)C(O)(c2ccccc2)c2ccccc2)CC1`, the growth is inactive: 94.7%.
Same read-out and setting: the same measure for `O=[N+]([O-])c1cc([N+](=O)[O-])c(O)c([N+](=O)[O-])c1.c1ccc([I+]c2ccccc2)cc1`: inactive: 72.5%; for `Nc1cc([N+](=O)[O-])cc([N+](=O)[O-])c1O`: inactive: 104% and inactive: 106%.
Still for that read-out and setting: in the case of `CC(C)N1CCN(CCOC(=O)C(O)(c2ccccc2)c2ccccc2)CC1` it was inactive: 105%; in that of `CC(C)N(CCCl)C(C)C`, inactive: 108%; in that of `O=[N+]([O-])OCCOc1ccc([N+](=O)[O-])cc1[N+](=O)[O-]`, inactive: 116%.
As to `O=[N+]([O-])N(CCOC(N(F)F)(N(F)F)N(F)F)CC([N+](=O)[O-])([N+](=O)[O-])[N+](=O)[O-]`, the growth is inactive: 114%.
Still for that read-out and setting: in the case of `NN/C(N)=N/[N+](=O)[O-]` it was inactive: 107%.
